# Target: immobilized Aβ fibrils (Homo sapiens, UniProt P05067)
# By UniProt entry, the sequences of proteins in these tests, tags left out. Residues count along the entry.
# UniProt P05067, 672-713 limits assumed: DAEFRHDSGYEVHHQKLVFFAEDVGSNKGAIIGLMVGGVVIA
# Assay: FAC-MS assay of free Aβ monomer (indicator) binding to immobilized Aβ fibrils in the presence of test compounds
# Settings: FAC-MS shift of free Aβ monomer breakthrough on immobilized Aβ fibrils in presence of the compound; screen of Table 2
compound,measurement,value
NNc1nc2nonc2nc1NN,Aβ Shift,0

# — patent US20110028719A1, “SCREENING METHODS FOR AMYLOID BETA MODULATORS” (priority 2006, published 2011)
